Experimental data published in US5208217A, “Hepatospecific insulin analogues” (Mount Sinai School of Medicine of The City University of …, priority 1991, dated 1993).

The chains behind the UniProt entries cited, without tags or fusion partners. Residues count along the entry.
UniProt P15127, 27-759 limits assumed: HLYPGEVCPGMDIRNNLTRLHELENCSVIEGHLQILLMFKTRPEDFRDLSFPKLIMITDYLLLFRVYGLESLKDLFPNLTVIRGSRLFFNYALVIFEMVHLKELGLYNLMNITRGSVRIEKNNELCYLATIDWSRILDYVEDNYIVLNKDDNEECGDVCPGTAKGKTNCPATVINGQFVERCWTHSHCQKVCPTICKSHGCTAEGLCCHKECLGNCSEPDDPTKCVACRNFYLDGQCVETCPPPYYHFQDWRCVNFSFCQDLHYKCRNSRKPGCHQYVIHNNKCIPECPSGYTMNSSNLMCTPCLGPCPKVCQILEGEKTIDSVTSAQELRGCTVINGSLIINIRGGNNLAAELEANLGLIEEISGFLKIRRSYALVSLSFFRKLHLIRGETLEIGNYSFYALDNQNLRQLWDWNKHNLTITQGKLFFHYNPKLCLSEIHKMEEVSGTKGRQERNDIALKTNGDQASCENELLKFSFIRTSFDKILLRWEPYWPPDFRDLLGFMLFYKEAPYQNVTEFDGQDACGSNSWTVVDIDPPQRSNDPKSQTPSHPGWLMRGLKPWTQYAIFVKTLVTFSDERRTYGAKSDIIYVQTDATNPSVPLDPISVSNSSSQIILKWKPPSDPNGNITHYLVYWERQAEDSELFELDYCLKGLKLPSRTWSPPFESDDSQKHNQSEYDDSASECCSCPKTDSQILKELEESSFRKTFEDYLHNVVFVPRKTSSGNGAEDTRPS
UniProt P15127, 764-1383 partner limits assumed: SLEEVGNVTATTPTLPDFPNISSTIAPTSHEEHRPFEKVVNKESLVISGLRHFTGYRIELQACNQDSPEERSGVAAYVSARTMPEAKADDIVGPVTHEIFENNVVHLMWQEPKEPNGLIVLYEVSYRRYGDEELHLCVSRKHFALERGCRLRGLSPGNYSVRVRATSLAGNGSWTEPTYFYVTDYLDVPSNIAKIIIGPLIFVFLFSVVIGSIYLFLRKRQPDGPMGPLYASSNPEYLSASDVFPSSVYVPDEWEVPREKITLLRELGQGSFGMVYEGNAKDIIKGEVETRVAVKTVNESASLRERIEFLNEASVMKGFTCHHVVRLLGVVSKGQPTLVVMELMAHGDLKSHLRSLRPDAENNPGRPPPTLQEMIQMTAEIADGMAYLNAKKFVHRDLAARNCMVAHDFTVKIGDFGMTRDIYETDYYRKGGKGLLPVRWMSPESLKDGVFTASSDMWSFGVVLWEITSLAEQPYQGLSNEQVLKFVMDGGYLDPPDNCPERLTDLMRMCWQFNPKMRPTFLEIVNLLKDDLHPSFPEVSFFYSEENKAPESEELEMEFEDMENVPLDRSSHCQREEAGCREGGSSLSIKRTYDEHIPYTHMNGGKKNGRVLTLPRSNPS

Biological target: T1, insulin receptors (Rattus norvegicus, UniProt P15127)
T1 construct: plasma membranes (20-40 μg of protein) in 0.1M sodium phosphate, pH 7.4; from tissue; host or cells: rat liver plasma membrane fraction
Experiment: Insulin receptor binding assay (inhibition of specific 125I-insulin binding)
Settings: rat liver plasma membranes; relative to the natural hormone (unlabelled insulin); 45 min at 24° C.
Source text: In this Example the materials used and the analytical procedures followed are those found in Kitagawa et al., Biochemistry, 23: 1405-1413 (1984). ^125 I-insulin for receptor binding studies and [3-^3 H] glucose for lipogenesis were obtained from DuPont NEN Research Products. Cellulose acetate membrane filters, 0.2 μm pore size, were products of Sartorius. Glass-fiber filters, Type GFC, were from Whatman. Collagenase, Type II crude, was obtained from Worthington. The scintillation fluids Filtron-X®, Hydrofluor® and Soluscint-O® were products of National Diagnostics. Crystalline bovine insulin was from Sigma, and fatty-acid free bovine serum albumin from Boehringer - Mannheim Biochemicals.
The first two procedures were done in accordance with Burke et. al, Biochemistry 19:4547-4556, (1980).
Briefly, triplicate 0.2 ml incubations contained ^125 I-insulin, 3×10^-10 M, unlabelled insulin or [Trp^14 -A] insulin prepared as in Example 1, and plasma membranes (20-40 μg of protein) in 0.1M sodium phosphate, pH 7.4, containing 0.6% fraction V bovine serum albumin. […] The filters were washed twice with the ice cold buffer, dried, and then radioactivity was counted in a scintillation counter using Filtron-X®.

[Trp^14 -A] insulin
Relative potency in inhibiting 50% of the specific binding of 125I-insulin to the receptor preparation: about 60%
